Amino acid sequences for entries named in this document (tags omitted). Residues count along the entry.
UniProt P25774, 115-331: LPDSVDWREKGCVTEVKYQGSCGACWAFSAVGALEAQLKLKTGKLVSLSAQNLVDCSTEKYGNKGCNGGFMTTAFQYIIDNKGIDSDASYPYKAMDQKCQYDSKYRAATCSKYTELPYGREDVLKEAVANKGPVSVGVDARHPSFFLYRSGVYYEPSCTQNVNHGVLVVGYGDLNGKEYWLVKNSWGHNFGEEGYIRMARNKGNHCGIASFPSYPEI

In patent US20090099157A1, “TETRAHYDRO-PYRAZOLO-PYRIDINE THIOETHER MODULATORS OF CATHEPSIN S” (priority 2007, published 2009):

Target: Recombinant human cathepsin S (CatS) (Homo sapiens, UniProt P25774)
Experiment: biochemical

IC50 [nM]	SMILES
550	CC1(O)CCN(C[C@H](O)Cn2nc(-c3ccc(C(F)(F)F)c(SCCN4CCCC(F)C4)c3)c3c2CCN(S(C)(=O)=O)C3)CC1 (stereo partly drawn) [Example 568, 1-[(2S)-3-{3-[3-{[2-(3-Fluoropiperidin-1-yl)ethyl]sulfanyl}-4-(trifluoromethyl)phenyl]-5-(methylsulfonyl)-4,5,6,7-tetrahydro-1H-pyrazolo[4,3-c]pyridin-1-yl}-2-hydroxypropyl]-4-methylpiperidin-4-ol]
700	CCCNCCSc1cc(-c2nn(CCCN3CCCCC3)c3c2CN(S(C)(=O)=O)CC3)ccc1C(F)(F)F [Example 151, N-[2-({5-[5-(Methylsulfonyl)-1-(3-piperidin-1-ylpropyl)-4,5,6,7-tetrahydro-1H-pyrazolo[4,3-c]pyridin-3-yl]-2-(trifluoromethyl)phenyl}sulfanyl)ethyl]propan-1-amine]
4000	OC1CCCN(CCSc2cc(-c3nn(CC(O)CN4CCC(Oc5ncccn5)CC4)c4c3CNCC4)ccc2C(F)(F)F)C1 (centres unmarked) [Example 475, 1-(2-{[5-(1-{2-Hydroxy-3-[4-(pyrimidin-2-yloxy)piperidin-1-yl]propyl}-4,5,6,7-tetrahydro-1H-pyrazolo[4,3-c]pyridin-3-yl)-2-(trifluoromethyl)phenyl]sulfanyl}ethyl)piperidin-3-ol]
150	CS(=O)(=O)N1CCc2c(c(-c3ccc(C(F)(F)F)c(SCCN4CCCCC4)c3)nn2CC(O)CN2CCC(C(=O)N3CCOCC3)CC2)C1 (centres unmarked) [Example 811, 1-[5-(Methylsulfonyl)-3-{3-[(2-piperidin-1-ylethyl)sulfanyl]-4-(trifluoromethyl)phenyl}-4,5,6,7-tetrahydro-1H-pyrazolo[4,3-c]pyridin-1-yl]-3-[4-(morpholin-4-ylcarbonyl)piperidin-1-yl]propan-2-ol]
300	C[C@H]1COCCN1CC(O)Cn1nc(-c2ccc(C(F)(F)F)c(SCC(=O)N3CCOCC3)c2)c2c1CCN(S(C)(=O)=O)C2 (stereo partly drawn) [Example 466, 1-[(3S)-3-Methylmorpholin-4-yl]-3-[5-(methylsulfonyl)-3-{3-[(2-morpholin-4-yl-2-oxoethyl)sulfanyl]-4-(trifluoromethyl)phenyl}-4,5,6,7-tetrahydro-1H-pyrazolo[4,3-c]pyridin-1-yl]propan-2-ol]
45	CS(=O)(=O)NCCSc1cc(-c2nn(CC(O)CN3CCC(N4CCCC4=O)CC3)c3c2CN(S(C)(=O)=O)CC3)ccc1C(F)(F)F (centres unmarked) [Example 711, N-[2-({5-[1-{2-Hydroxy-3-[4-(2-oxopyrrolidin-1-yl)piperidin-1-yl]propyl}-5-(methylsulfonyl)-4,5,6,7-tetrahydro-1H-pyrazolo[4,3-c]pyridin-3-yl]-2-(trifluoromethyl)phenyl}sulfanyl)ethyl]methanesulfonamide]
95	CC1CCN(C[C@H](O)Cn2nc(-c3ccc(C(F)(F)F)c(SCCN4CCC5CCCCC5C4)c3)c3c2CCN(S(C)(=O)=O)C3)CC1 (stereo partly drawn) [Example 637, (2S)-1-(4-Methylpiperidin-1-yl)-3-{5-(methylsulfonyl)-3-[3-{[2-(octahydroisoquinolin-2(1H)-yl)ethyl]sulfanyl}-4-(trifluoromethyl)phenyl]-4,5,6,7-tetrahydro-1H-pyrazolo[4,3-c]pyridin-1-yl}propan-2-ol]
260	CS(=O)(=O)N1CCc2c(c(-c3ccc(C(F)(F)F)c(SCCN4CC[C@H](F)C4)c3)nn2C[C@@H](O)CN2CCC(N3C[C@H](O)CC3=O)CC2)C1 [Example 764, (4R)-1-{1-[(2S)-3-{3-[3-({2-[(3S)-3-Fluoropyrrolidin-1-yl]ethyl}sulfanyl)-4-(trifluoromethyl)phenyl]-5-(methylsulfonyl)-4,5,6,7-tetrahydro-1H-pyrazolo[4,3-c]pyridin-1-yl}-2-hydroxypropyl]piperidin-4-yl}-4-hydroxypyrrolidin-2-one]
800	CC(=O)N1CCc2c(c(-c3ccc(C(F)(F)F)c(SCCN4CCCCC4)c3)nn2CC(O)CN2CCCCC2)C1 (centres unmarked) [Example 245, 1-(5-Acetyl-3-{3-[(2-piperidin-1-ylethyl)sulfanyl]-4-(trifluoromethyl)phenyl}-4,5,6,7-tetrahydro-1H-pyrazolo[4,3-c]pyridin-1-yl)-3-piperidin-1-ylpropan-2-ol]
1260	CS(=O)(=O)N1CCc2c(c(-c3ccc(C(F)(F)F)c(SCCN4CCC4)c3)nn2CCCN2CCCCC2)C1 [Example 306, 3-{3-[(2-Azetidin-1-ylethyl)sulfanyl]-4-(trifluoromethyl)phenyl}-5-(methylsulfonyl)-1-(3-piperidin-1-ylpropyl)-4,5,6,7-tetrahydro-1H-pyrazolo[4,3-c]pyridine]
2180	CC(C)(C)OC(=O)N1CCC(NCCSc2cc(-c3nn(CCCN4CCCCC4)c4c3CN(S(C)(=O)=O)CC4)ccc2C(F)(F)F)CC1 [Example 756, 1,1-Dimethylethyl 4-{[2-({5-[5-(methylsulfonyl)-1-(3-piperidin-1-ylpropyl)-4,5,6,7-tetrahydro-1H-pyrazolo[4,3-c]pyridin-3-yl]-2-(trifluoromethyl)phenyl}sulfanyl)ethyl]amino}piperidine-1-carboxylate]
1150	CNC(=O)CSc1cc(-c2nn(CCCN3CCC(N4CCCC4=O)CC3)c3c2CN(S(C)(=O)=O)CC3)ccc1C(F)(F)F [Example 86, 2-[5-(5-Methanesulfonyl-1-{3-[4-(2-oxo-pyrrolidin-1-yl)-piperidin-1-yl]-propyl}-4,5,6,7-tetrahydro-1H-pyrazolo[4,3-c]pyridin-3-yl)-2-trifluoromethyl-phenylsulfanyl]-N-methyl-acetamide]
530	CN1CCCN(CCSc2cc(-c3nn(CCCN4CCC(N5CCCC5=O)CC4)c4c3CN(S(C)(=O)=O)CC4)ccc2C(F)(F)F)CC1 [Example 45]
130	CS(=O)(=O)N1CCc2c(c(-c3ccc(C(F)(F)F)c(SCCN4CCC(F)CC4)c3)nn2C[C@@H](O)CN2CCC(O)CC2)C1 [Example 480, 1-[(2S)-3-{3-[3-{[2-(4-Fluoropiperidin-1-yl)ethyl]sulfanyl}-4-(trifluoromethyl)phenyl]-5-(methylsulfonyl)-4,5,6,7-tetrahydro-1H-pyrazolo[4,3-c]pyridin-1-yl}-2-hydroxypropyl]piperidin-4-ol]
180	CC1CCN(CCSc2cc(-c3nn(C[C@@H](O)CN4CCC(C)(C)CC4)c4c3CN(S(C)(=O)=O)CC4)ccc2C(F)(F)F)CC1 [Example 540, (2S)-1-(4,4-Dimethylpiperidin-1-yl)-3-{3-[3-{[2-(4-methylpiperidin-1-yl)ethyl]sulfanyl}-4-(trifluoromethyl)phenyl]-5-(methylsulfonyl)-4,5,6,7-tetrahydro-1H-pyrazolo[4,3-c]pyridin-1-yl}propan-2-ol]
> 20000	CC(=O)NC1CCN(CCSc2cc(-c3nn(C[C@@H](O)CN4CCCCC4)c4c3CN(S(C)(=O)=O)CC4)ccc2C(F)(F)F)CC1 [Example 220, N-[1-(2-{[5-{1-[(2S)-2-Hydroxy-3-piperidin-1-ylpropyl]-5-(methylsulfonyl)-4,5,6,7-tetrahydro-1H-pyrazolo[4,3-c]pyridin-3-yl}-2-(trifluoromethyl)phenyl]sulfanyl}ethyl)piperidin-4-yl]acetamide]
630	CS(=O)(=O)N1CCc2c(c(-c3ccc(C(F)(F)F)c(SCCN4CCC(N5CCCC5)CC4)c3)nn2CC(O)CN2CCC(Oc3ncccn3)CC2)C1 (centres unmarked) [Example 884, 1-{5-(Methylsulfonyl)-3-[3-{[2-(4-pyrrolidin-1-ylpiperidin-1-yl)ethyl]sulfanyl}-4-(trifluoromethyl)phenyl]-4,5,6,7-tetrahydro-1H-pyrazolo[4,3-c]pyridin-1-yl}-3-[4-(pyrimidin-2-yloxy)piperidin-1-yl]propan-2-ol]
1030	CS(=O)(=O)N1CCc2c(c(-c3ccc(C(F)(F)F)c(SCCN4CCCCC4)c3)nn2CC(O)CN2CCCC2C(=O)O)C1 (centres unmarked) [Example 455, 1-{2-Hydroxy-3-[5-(methylsulfonyl)-3-{3-[(2-piperidin-1-ylethyl)sulfanyl]-4-(trifluoromethyl)phenyl}-4,5,6,7-tetrahydro-1H-pyrazolo[4,3-c]pyridin-1-yl]propyl}praline]
1400	CC(=O)N1CCN(CCSc2cc(-c3nn(CC(O)CN4CCCC4)c4c3CN(S(C)(=O)=O)CC4)ccc2C(F)(F)F)CC1 (centres unmarked) [Example 448, 1-{3-[3-{[2-(4-Acetylpiperazin-1-yl)ethyl]sulfanyl}-4-(trifluoromethyl)phenyl]-5-(methylsulfonyl)-4,5,6,7-tetrahydro-1H-pyrazolo[4,3-c]pyridin-1-yl}-3-pyrrolidin-1-ylpropan-2-ol]
40	CS(=O)(=O)N1CCc2c(c(-c3ccc(C(F)(F)F)c(SCC(=O)N4CC[C@@H](O)C4)c3)nn2CC(O)CN2CCN(c3ccccc3O)CC2)C1 (stereo partly drawn) [Example 784, (3R)-1-[({5-[1-{2-Hydroxy-3-[4-(2-hydroxyphenyl)piperazin-1-yl]propyl}-5-(methylsulfonyl)-4,5,6,7-tetrahydro-1H-pyrazolo[4,3-c]pyridin-3-yl]-2-(trifluoromethyl)phenyl}sulfanyl)acetyl]pyrrolidin-3-ol]
540	CC(C)NC(=O)N1CCc2c(c(-c3ccc(C(F)(F)F)c(SCCN4CCC(F)CC4)c3)nn2C[C@@H](O)CN2CCCCC2)C1 [Example 434, 3-[3-{[2-(4-Fluoropiperidin-1-yl)ethyl]sulfanyl}-4-(trifluoromethyl)phenyl]-1-[(2S)-2-hydroxy-3-piperidin-1-ylpropyl]-N-(1-methylethyl)-1,4,6,7-tetrahydro-5H-pyrazolo[4,3-c]pyridine-5-carboxamide]
3850	OC(CN1CCCCC1)Cn1nc(-c2ccc(C(F)(F)F)c(SCCN3CCC(F)(F)C3)c2)c2c1CCNC2 (centres unmarked) [Example 297, 1-{3-[3-{[2-(3,3-Difluoropyrrolidin-1-yl)ethyl]sulfanyl}-4-(trifluoromethyl)phenyl]-4,5,6,7-tetrahydro-1H-pyrazolo[4,3-c]pyridin-1-yl}-3-piperidin-1-ylpropan-2-ol]
220	CS(=O)(=O)N1CCc2c(c(-c3ccc(C(F)(F)F)c(SCCN4CCCC(F)C4)c3)nn2C[C@@H](O)CN2CC3CCCC3C2)C1 (stereo partly drawn) [Example 550, (2S)-1-{3-[3-{[2-(3-Fluoropiperidin-1-yl)ethyl]sulfanyl}-4-(trifluoromethyl)phenyl]-5-(methylsulfonyl)-4,5,6,7-tetrahydro-1H-pyrazolo[4,3-c]pyridin-1-yl}-3-(hexahydrocyclopenta[c]pyrrol-2(1H)-yl)propan-2-ol]
